Experimental data published in ChEMBL document CHEMBL1128946, “Novel inhibitors of influenza sialidases related to GG167 structure-activity, crystallographic and Molecular dynamics studies with 4H-pyran-2-carboxylic acid 6-carboxamides” (Bioorg Med Chem Lett, 1996).

Molecular target: Neuraminidase (Influenza A virus (A/Puerto Rico/8/1934(H1N1)), UniProt P03468)
Assay: Inhibition of influenza A sialidase (neuraminidase)
Design: species or system Influenza A virus (strain: A/PR/8/34)

Work on `CC(=O)N[C@@H]1[C@@H](N)C=C(C(=O)O)O[C@H]1C(=O)N(C)C` yielded an IC50 of 2400 nM.
Work on `CCCCN(CCCC)C(=O)[C@@H]1OC(C(=O)O)=C[C@H](N)[C@H]1NC(C)=O` yielded an IC50 of 450 nM.
`CCCCCCCCCN(CCC)C(=O)[C@@H]1OC(C(=O)O)=C[C@H](N)[C@H]1NC(C)=O` was tested, and the IC50 was 23 nM.
`CCCN(CCc1ccccc1)C(=O)[C@@H]1OC(C(=O)O)=C[C@H](N)[C@H]1NC(C)=O` was tested, and the IC50 was 5 nM.
